Literature values in PMC3121759 (PLoS ONE, 2011).

Target: T1, GlyT-1 (Rattus norvegicus, UniProt P28572)
T1 construct: the tissues of whole brains or each specific brain region were homogenized; from tissue; host or cells: rat brain (whole brain or dissected regions; male Crl:CD (SD) rats)
T1 sequence (P28572 1-638): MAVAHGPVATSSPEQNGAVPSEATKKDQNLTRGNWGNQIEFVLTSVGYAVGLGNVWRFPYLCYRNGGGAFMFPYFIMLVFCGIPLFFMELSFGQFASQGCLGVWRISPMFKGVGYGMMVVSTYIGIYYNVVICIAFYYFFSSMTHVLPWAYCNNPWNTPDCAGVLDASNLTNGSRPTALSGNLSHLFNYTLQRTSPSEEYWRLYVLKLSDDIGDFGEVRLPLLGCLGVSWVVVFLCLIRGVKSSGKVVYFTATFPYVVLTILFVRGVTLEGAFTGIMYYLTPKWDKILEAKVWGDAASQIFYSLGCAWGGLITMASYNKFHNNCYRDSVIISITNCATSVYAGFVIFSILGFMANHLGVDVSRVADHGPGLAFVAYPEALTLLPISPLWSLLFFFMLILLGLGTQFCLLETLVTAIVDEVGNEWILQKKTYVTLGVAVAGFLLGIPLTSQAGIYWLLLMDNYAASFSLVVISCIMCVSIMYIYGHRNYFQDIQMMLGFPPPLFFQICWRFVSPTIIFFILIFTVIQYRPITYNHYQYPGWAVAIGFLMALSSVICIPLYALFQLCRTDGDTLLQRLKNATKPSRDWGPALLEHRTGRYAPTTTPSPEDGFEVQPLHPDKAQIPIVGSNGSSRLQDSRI
Details: cited from earlier work

Compound: NCC(=O)O [Glycine, glycine]
- Type of interaction with binding of [3H]SB-733993 and [3H]GSK931145: competitive interactions
